Patent US11649218B2, “C-Abl tyrosine kinase inhibitory compound embodiments and methods of making and using the same” (The USA, as represented by the Secretary, Dept. of Health …, priority 2018, dated 2023)

Tested on: Leukemia K562 cell
Experiment: Leukemia K562 cell proliferation/viability assay (CellTiterGlo, 48 hours)
Type: cell-based
Conditions: Homo sapiens; K562 cells

IC50: 935 nM
SMILES: O=C(NCCO)c1cccc(-c2cc(Nc3ccc(OC(F)(F)F)cc3)ncn2)c1 [GNF-5]
